Experimental findings from PubChem BioAssay AID727 (The Scripps Research Institute Molecular Screening Center, 2007) are described below.

Amino acid sequences for entries named in this document (tags omitted).
UniProt Q05397, whole entry: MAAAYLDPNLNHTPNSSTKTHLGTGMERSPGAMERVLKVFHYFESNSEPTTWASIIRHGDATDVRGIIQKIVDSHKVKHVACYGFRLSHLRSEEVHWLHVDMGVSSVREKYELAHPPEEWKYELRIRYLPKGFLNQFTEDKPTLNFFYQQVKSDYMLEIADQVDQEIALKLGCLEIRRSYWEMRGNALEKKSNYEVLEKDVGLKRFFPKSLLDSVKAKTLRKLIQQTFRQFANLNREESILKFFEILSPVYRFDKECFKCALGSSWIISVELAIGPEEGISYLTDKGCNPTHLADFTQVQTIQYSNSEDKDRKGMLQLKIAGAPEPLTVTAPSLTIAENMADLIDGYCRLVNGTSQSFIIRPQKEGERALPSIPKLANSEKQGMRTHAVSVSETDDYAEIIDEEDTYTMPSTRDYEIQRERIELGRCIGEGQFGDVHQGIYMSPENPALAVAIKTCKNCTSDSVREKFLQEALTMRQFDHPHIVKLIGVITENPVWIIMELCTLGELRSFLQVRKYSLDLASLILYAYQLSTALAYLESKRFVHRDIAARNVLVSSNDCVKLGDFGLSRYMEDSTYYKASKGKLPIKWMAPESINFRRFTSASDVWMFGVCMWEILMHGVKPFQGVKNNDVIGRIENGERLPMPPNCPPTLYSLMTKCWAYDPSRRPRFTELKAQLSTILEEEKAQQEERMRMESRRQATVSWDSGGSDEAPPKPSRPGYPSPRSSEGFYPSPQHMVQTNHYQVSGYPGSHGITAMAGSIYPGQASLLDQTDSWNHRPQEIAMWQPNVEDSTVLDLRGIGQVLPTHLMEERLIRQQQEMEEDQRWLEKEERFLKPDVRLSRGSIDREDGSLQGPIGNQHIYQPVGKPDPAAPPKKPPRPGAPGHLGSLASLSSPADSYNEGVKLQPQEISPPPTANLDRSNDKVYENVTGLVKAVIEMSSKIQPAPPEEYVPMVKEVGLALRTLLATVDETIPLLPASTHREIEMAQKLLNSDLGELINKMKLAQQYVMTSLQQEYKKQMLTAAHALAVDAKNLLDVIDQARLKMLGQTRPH

This is a selection; strong and weak results do not stand in their true shares. The source made the active and inactive calls. Rule as the data show it: active = inhibition above about 19%; inactive = the rest.

The assay addresses Focal adhesion kinase 1 (Homo sapiens) (UniProt Q05397). Kind of assay: FAK kinase inhibitors, primary screen, biochemical (AID 727).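 Also: 0% = DMSO and 100% = reference compound high control.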 Particulars: biochemical FAK kinase activity assay; hits give high values;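 tested at 7 µM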.
As for `c1ccc(CN2CCC(Nc3ccccc3)CC2)cc1`, the inhibition is inactive: 0.54%.

Turning to `N/C(=N\O)c1c(N)no[n+]1[O-]`, the inhibition was inactive: 3.01%. The figure for `CCOc1ncccc1C(=O)NCC1(N2CCOCC2)CCCCC1` is inactive: 4.35%. For `CCC(CO)(C(=O)OC1CN2CCC1CC2)c1ccccc1` (stereo not given), the inhibition is inactive: 6.03%.

On to `COc1ccc(NC2CCN(CCc3ccccc3)CC2)c(OC)c1`, for which the inhibition is inactive: 3.73%.

For the compound `O=C(NCC1(N2CCOCC2)CCCCC1)c1cc2ccccc2o1`, the inhibition is inactive: 1.99%. The figure for `O=C(OC1CN2CCC1CC2)C1c2ccccc2Oc2ccccc21` (stereo not given) is inactive: 4.47%; for `CN1CCC(Nc2cccc(F)c2)CC1` it is inactive: 3.59%; for `N#CC1(Nc2ccccc2)CCN(CCc2ccccc2)CC1` it is inactive: -0.45%. On to `O=C(NCC1(N2CCOCC2)CCCCC1)c1cc(=O)[nH]c2ccccc12`, for which the inhibition was inactive: -0.56%.

One may read the inhibition as the relative decrease from the control value, in per cent.
